Data: US9682141B2, “Combination of kinase inhibitors and uses thereof” (INTELLIKINE LLC, priority 2011, dated 2017)

Chains of the proteins cited; added tags and fusions are not shown. Lines headed by an entry give the natural chain unless they say otherwise; changes in a name come on top.
UniProt P42336, whole entry: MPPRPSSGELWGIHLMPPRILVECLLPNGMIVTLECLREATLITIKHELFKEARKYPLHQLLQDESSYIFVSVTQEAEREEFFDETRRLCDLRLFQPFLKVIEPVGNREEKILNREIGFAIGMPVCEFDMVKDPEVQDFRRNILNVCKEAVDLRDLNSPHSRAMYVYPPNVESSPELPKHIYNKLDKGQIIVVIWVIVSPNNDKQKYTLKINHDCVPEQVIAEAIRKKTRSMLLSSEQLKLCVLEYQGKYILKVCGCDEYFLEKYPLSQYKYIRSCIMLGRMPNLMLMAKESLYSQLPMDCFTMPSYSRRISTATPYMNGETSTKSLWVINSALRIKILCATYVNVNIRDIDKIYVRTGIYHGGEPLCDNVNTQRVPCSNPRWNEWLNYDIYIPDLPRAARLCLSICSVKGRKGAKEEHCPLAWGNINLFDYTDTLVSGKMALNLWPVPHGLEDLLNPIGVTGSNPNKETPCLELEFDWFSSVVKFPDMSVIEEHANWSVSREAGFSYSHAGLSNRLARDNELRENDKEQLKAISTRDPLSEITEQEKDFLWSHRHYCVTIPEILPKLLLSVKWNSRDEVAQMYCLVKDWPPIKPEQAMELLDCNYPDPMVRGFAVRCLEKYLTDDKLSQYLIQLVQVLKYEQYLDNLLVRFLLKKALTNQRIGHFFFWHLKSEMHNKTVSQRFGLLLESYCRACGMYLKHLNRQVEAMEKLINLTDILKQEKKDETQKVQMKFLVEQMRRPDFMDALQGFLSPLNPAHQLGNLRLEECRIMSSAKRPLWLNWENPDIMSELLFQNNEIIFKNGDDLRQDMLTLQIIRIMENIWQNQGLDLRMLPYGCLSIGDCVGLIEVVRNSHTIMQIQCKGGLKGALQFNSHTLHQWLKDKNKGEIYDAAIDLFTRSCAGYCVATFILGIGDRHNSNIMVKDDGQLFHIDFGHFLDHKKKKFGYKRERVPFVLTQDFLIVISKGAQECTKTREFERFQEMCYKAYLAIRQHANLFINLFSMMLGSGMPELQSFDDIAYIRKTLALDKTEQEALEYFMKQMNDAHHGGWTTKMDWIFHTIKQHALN
UniProt P42338, whole entry: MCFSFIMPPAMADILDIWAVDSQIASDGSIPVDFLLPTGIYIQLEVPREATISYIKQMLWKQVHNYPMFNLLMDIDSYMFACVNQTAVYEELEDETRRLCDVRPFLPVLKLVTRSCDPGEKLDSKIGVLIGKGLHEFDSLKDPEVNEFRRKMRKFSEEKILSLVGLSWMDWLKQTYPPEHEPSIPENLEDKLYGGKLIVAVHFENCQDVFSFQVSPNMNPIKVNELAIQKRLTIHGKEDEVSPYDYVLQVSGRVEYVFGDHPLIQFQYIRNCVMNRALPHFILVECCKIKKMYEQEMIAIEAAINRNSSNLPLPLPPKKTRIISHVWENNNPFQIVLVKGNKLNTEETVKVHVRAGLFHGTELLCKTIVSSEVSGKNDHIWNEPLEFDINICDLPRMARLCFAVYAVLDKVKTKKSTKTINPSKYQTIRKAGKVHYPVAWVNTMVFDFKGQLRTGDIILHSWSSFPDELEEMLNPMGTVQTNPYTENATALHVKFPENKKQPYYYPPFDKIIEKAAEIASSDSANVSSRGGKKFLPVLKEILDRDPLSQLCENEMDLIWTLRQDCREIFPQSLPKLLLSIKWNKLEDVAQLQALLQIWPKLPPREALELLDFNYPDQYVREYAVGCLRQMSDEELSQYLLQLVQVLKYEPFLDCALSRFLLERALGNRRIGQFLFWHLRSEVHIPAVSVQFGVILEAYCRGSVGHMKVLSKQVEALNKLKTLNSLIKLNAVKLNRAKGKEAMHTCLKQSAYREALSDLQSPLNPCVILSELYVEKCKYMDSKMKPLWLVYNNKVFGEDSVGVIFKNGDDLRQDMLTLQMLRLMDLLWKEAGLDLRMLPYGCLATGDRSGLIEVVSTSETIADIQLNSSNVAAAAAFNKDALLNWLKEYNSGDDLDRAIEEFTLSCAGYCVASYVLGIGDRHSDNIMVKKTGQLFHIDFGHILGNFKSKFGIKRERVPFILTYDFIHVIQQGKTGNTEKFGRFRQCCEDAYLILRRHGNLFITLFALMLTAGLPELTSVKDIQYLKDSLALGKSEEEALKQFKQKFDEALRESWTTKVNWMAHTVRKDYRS
UniProt O00329, whole entry: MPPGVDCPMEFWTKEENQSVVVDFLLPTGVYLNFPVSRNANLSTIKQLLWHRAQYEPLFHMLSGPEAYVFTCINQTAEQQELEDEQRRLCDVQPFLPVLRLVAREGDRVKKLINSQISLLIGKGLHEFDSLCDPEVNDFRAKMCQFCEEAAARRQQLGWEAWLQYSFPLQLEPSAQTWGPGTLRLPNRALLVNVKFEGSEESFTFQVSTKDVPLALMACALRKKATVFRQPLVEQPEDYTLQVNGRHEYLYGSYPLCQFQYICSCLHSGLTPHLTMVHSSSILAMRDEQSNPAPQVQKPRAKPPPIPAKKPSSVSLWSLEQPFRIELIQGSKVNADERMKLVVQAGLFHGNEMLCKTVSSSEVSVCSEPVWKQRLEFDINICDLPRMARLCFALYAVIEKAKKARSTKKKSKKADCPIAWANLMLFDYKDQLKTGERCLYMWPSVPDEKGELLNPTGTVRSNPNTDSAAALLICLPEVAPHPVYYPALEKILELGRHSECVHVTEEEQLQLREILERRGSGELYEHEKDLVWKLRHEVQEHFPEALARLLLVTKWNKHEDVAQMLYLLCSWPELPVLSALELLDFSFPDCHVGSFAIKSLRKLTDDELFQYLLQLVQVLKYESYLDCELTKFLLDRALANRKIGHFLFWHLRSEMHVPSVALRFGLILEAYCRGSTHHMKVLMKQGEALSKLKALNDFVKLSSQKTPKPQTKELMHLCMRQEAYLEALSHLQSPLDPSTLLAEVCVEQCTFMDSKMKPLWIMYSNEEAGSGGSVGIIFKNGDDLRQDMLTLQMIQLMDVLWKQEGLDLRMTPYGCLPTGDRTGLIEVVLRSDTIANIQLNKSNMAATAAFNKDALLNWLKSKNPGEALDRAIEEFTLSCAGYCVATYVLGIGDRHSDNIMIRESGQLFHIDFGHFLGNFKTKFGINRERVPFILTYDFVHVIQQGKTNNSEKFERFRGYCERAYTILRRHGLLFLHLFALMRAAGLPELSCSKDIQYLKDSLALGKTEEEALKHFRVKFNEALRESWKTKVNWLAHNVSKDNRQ
UniProt P48736, whole entry: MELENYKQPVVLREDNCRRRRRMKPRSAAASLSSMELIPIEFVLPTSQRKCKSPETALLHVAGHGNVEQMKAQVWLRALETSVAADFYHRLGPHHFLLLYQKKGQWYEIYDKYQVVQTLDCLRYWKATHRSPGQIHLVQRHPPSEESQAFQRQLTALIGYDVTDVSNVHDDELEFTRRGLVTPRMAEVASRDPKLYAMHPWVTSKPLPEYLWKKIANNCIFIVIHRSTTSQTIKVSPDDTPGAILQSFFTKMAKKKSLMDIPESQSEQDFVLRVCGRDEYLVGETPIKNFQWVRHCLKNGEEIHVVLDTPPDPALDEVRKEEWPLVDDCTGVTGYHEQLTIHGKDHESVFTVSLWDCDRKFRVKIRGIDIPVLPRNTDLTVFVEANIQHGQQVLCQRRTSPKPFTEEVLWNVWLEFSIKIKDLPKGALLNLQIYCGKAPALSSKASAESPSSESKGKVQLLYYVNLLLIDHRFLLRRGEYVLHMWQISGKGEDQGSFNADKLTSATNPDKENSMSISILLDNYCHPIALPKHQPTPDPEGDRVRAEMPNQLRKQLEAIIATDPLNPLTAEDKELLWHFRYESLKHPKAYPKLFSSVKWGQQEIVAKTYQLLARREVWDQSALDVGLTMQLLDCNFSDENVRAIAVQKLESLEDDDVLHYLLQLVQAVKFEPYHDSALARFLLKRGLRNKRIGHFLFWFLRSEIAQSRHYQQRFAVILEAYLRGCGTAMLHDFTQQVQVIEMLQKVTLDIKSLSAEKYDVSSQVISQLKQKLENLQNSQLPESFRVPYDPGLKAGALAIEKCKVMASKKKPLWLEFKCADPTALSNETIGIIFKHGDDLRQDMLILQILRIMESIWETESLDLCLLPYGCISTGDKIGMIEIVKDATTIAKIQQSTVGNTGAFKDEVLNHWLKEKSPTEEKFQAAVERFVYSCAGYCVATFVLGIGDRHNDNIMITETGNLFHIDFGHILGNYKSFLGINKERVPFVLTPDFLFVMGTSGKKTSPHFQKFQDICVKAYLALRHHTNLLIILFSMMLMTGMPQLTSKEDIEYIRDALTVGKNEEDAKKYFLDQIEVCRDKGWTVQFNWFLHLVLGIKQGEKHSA
UniProt P27986, whole entry partner: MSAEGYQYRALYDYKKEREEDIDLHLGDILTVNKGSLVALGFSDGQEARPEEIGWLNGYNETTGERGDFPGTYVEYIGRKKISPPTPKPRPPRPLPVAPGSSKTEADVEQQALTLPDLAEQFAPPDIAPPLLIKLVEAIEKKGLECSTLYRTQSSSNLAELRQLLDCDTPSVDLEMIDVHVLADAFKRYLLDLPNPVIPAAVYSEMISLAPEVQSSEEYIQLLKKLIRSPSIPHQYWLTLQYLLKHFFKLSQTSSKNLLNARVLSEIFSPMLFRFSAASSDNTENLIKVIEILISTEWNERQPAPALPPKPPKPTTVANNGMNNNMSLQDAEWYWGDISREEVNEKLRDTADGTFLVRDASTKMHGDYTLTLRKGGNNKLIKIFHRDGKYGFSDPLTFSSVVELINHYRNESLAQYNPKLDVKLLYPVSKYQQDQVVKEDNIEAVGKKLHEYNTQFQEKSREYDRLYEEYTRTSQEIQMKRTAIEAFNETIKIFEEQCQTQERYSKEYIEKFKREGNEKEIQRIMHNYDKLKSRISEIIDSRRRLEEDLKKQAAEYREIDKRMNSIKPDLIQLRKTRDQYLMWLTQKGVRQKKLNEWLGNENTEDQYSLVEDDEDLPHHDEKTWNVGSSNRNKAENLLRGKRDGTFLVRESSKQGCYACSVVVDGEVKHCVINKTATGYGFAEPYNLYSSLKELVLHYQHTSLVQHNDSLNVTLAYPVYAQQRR

Columns and labels:
PI3K α = PI3K α (Homo sapiens (Human), UniProt P42336); experiment: PI 3-Kinase (human) HTRF assay, p110α/p85α; type: biochemical; details: read-out: PI3K α IC50
PI3K β = PI3K β (Homo sapiens (Human), UniProt P42338); experiment: PI 3-Kinase (human) HTRF assay, p110β/p85α; details: read-out: PI3K β IC50
PI3K δ = PI3K δ (Homo sapiens (Human), UniProt O00329); experiment: PI 3-Kinase (human) HTRF assay, p110δ/p85α; type: biochemical
PI3K γ = PI3K γ (Homo sapiens (Human), UniProt P48736); experiment: PI 3-Kinase (human) HTRF assay, p110γ; type: biochemical
MDA-MB-361 cells = experiment: MDA-MB-361 tumor cell proliferation; details: read-out: PC3 proliferation; column headed PC3; starting with compound 438, proliferation data was obtained using an MDA-MB-361 cell line

Row | IC50 (PI3K α) | IC50 (PI3K β) | IC50 (PI3K δ; read-out: PI3K γ IC50) | IC50 (PI3K γ; read-out: PI3K δ IC50) | IC50 (PI3K δ; read-out: PI3K δ IC50) | IC50 (PI3K γ; read-out: PI3K γ IC50) | IC50 (MDA-MB-361 cells) | Compound
1 | > 10 µM | > 10 µM | > 10 µM | < 10 µM |  |  |  | CC(=O)Nc1cc2ccc(-c3cc(F)c4oc(N)nc4c3)cn2n1
2 | < 1 µM |  |  |  | > 10 µM | > 10 µM |  | CS(=O)(=O)N1CCC(n2cnc3ccc(-c4ccc5oc(N)nc5c4)cc3c2=O)CC1
3 | < 1 µM | < 10 µM | < 10 µM | < 10 µM |  |  |  | O=C(c1cnc2ccc(-c3ccc4[nH]nnc4c3)cn12)N1CCOCC1
4 | < 0.1 µM | < 10 µM | < 0.1 µM | < 1 µM |  |  | < 1 µM | CC1(C)CN(C2CN(C(=O)c3cnc4ccc(-c5ccc6oc(N)nc6c5)cn34)C2)CCN1

Read-outs that look alike come from different tables or passages of the source.
